Measured values from patent US20180036332A1, “USE OF NADPH IN PREPARING MEDICINES FOR TREATMENT OF HEART DISEASES” (Chongqing Institute of Bench-to Bed Bioengineering …, priority 2015, published 2018).

Tests used:
Assay type in all cases: in vivo
[1] = Blood brain barrier injury test (Dextran-Texas leakage) in permanent middle cerebral arterial occlusion ischemia mouse model; conditions: 2.5 mg/kg in the cerebral ventricle; 24 hours after permanent brain ischemia; C57BL/6 mice
[2] = system: CD11c-eYFP cells in the striatum brain area; test: Blood brain barrier related immune cell response (CD11c-eYFP dendritic cells) in permanent middle cerebral arterial embolism ischemia model; conditions: 2.5 mg/kg in the cerebral ventricle, 2 hours before ischemia; measured 24 hours after permanent brain ischemia; Tg(Itgax-Venus)1Mnz mice
[3] = Blood brain barrier permeability test (Evan's blue) in transient middle cerebral arterial occlusion mouse model; conditions: 7.5 mg/kg tail vein twice a day for 1 week before ischemia; ICR mice, 2 h occlusion then reperfusion; vs vehicle group, p<0.01

Nicotinamide adenine dinucleotide phosphate [NADPH]
ischemia induced Dextran-Texas leakage in the cerebral cortex and striatum area [1]: effectively reduced the ischemia induced Dextran-Texas leakage
responsiveness of CD11c-eYFP cells in the striatum brain area [2]: effectively reduces the responsiveness of CD11c-eYFP cells
permeability of blood brain barrier (EB content in brain tissue) [3]: significantly reduces the permeability of blood brain barrier
